Our source for the Vmax and kcat values is US10227617B2, “Sequestration of carbon dioxide with hydrogen to useful products” (UNIVERSITY OF GEORGIA RESEARCH FOUNDATION, INC., priority 2012, dated 2019).

The target of this test is T1, Metallosphaera sedula acyl-CoA synthetase (4-hydroxybutyrate:CoA ligase) Msed_0394, SEQ ID NO:13, recombinant (Metallosphaera sedula, UniProt A4YDR9).
T1 sequence (A4YDR9 1-549): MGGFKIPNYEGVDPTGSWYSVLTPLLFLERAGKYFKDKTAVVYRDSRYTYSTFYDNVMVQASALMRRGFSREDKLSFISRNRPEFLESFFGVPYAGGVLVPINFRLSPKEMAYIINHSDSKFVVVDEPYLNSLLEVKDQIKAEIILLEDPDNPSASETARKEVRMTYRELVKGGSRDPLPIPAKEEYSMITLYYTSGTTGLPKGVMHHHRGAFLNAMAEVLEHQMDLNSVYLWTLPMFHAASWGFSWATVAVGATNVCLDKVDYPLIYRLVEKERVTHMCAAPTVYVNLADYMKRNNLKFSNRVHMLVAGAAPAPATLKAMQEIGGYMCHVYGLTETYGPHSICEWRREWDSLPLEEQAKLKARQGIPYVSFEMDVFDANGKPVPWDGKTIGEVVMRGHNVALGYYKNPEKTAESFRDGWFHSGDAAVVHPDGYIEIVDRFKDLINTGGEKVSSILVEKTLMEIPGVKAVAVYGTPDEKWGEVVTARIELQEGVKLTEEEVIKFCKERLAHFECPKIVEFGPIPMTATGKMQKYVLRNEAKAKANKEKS
The test can be described thus: 4-hydroxybutyrate-CoA synthetase (acyl-CoA ligase) activity of recombinant Msed_0394, discontinuous DTNB assay. The format is biochemical. Conditions: Msed_0394, 75° C., pH 7.9.

In the case of `CC(=O)O` [Acetate], the Vmax is 0.13 µmol/min/mg and the kcat came to 0.14 s⁻¹.

In general, Vmax refers to the top rate of the reaction or transport when substrate is in excess. In general, kcat refers to the maximal rate divided by the concentration of active sites.
